# Assays:
# The chains behind the UniProt entries cited, without tags or fusion partners. Where a name states a change or a piece, a line headed by the entry shows the natural chain unless it says otherwise.
# UniProt P41145: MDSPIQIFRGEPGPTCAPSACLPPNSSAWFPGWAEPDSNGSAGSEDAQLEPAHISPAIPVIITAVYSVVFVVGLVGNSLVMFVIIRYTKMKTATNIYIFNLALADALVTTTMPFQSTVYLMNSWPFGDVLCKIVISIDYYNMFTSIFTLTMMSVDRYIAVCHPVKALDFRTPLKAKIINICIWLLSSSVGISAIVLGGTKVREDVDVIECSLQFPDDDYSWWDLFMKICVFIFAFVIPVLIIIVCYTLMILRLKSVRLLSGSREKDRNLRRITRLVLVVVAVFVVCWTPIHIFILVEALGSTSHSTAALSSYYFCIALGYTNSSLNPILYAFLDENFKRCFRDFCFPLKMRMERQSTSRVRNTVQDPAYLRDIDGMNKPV
# UniProt P33534: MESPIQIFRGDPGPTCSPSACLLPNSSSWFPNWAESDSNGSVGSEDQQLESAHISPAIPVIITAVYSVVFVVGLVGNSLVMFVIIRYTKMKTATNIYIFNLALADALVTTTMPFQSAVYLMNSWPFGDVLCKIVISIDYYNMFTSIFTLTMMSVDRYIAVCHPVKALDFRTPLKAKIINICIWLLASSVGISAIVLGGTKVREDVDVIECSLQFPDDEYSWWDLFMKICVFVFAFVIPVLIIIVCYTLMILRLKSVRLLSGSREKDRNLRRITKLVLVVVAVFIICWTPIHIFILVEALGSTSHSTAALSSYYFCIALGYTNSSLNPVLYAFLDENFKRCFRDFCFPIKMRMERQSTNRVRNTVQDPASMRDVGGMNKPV
# [1] = biological target: human kappa opioid receptor (hKOR) (Homo sapiens, UniProt P41145); conditions: read-out: hKOR EC50; transfected HEK-293 cells, luciferase reporter
# [2] = biological target: mouse kappa opioid receptor (mKOR) (Mus musculus, UniProt P33534); assay: Inhibition of forskolin-stimulated cAMP production in R1.G1 cells; type: cell-based; conditions: read-out: mKOR EC50
smiles,measurement,setting,value
CC(C)C[C@@H](NC(=O)[C@@H](Cc1ccccc1)NC(=O)[C@H](N)Cc1ccccc1)C(=O)N[C@H](CCCCN)C(=O)N1CCC(N2C(=O)Cc3ccccc32)CC1,EC50,[1],0.005 nM
same,EC50,[2],0.0485 nM
"CC(C)C[C@@H](NC(=O)[C@@H](Cc1ccccc1)NC(=O)[C@H](N)Cc1ccccc1)C(=O)N[C@H](CCCCN)C(=O)N1CCC(n2c(=O)[nH]c3cc(Cl)ccc32)CC1 [Compound (28), D-Phe-D-Phe-D-Leu-D-Lys-[5-chloro-1-(piperidin-4-yl)-1H-benzo[d]imidazol-2(3)H-one amide]]",EC50,[1],0.0083 nM
same,EC50,[2],0.0582 nM
CC(C)C[C@@H](NC(=O)[C@@H](Cc1ccccc1)NC(=O)[C@H](N)Cc1ccccc1)C(=O)N[C@H](CCCCN)C(=O)N1CCC(n2cc(-c3ccccc3)[nH]c2=O)CC1 [Compound (30)],EC50,[1],0.0116 nM
"CC(C)C[C@@H](NC(=O)[C@@H](Cc1ccccc1)NC(=O)[C@H](N)Cc1ccccc1)C(=O)N[C@H](CCCCN)C(=O)N1CCC(n2c(=O)[nH]c3ccccc32)CC1 [Compound (36), D-Phe-D-Phe-D-Leu-D-Lys-[1-(piperidin-4-yl)-1H-benzo[d]imidazol-2(3H)-one amide]]",EC50,[1],0.0052 nM
same,EC50,[2],0.0234 nM

# — US7713937B2, “Synthetic peptide amides and dimeric forms thereof” (Cara Therapeutics, Inc., priority 2006, dated 2010)
